The text below walks through data of patent US12162888B2, “Carboxamides as ubiquitin-specific protease inhibitors” (Valo Early Discovery, Inc., priority 2018, dated 2024).

This test has as its target T1, USP28 (His-tagged USP28-FL-mammalian) (Homo sapiens, UniProt Q96RU2).
T1 construct: Expression of USP28 (1-1077)-TEV-6*His (pTT5 vector) was carried out in Expi293f cells; made in house; host or cells: Expi293F cells (pTT5 vector)
T1 sequence (Q96RU2 1-1077): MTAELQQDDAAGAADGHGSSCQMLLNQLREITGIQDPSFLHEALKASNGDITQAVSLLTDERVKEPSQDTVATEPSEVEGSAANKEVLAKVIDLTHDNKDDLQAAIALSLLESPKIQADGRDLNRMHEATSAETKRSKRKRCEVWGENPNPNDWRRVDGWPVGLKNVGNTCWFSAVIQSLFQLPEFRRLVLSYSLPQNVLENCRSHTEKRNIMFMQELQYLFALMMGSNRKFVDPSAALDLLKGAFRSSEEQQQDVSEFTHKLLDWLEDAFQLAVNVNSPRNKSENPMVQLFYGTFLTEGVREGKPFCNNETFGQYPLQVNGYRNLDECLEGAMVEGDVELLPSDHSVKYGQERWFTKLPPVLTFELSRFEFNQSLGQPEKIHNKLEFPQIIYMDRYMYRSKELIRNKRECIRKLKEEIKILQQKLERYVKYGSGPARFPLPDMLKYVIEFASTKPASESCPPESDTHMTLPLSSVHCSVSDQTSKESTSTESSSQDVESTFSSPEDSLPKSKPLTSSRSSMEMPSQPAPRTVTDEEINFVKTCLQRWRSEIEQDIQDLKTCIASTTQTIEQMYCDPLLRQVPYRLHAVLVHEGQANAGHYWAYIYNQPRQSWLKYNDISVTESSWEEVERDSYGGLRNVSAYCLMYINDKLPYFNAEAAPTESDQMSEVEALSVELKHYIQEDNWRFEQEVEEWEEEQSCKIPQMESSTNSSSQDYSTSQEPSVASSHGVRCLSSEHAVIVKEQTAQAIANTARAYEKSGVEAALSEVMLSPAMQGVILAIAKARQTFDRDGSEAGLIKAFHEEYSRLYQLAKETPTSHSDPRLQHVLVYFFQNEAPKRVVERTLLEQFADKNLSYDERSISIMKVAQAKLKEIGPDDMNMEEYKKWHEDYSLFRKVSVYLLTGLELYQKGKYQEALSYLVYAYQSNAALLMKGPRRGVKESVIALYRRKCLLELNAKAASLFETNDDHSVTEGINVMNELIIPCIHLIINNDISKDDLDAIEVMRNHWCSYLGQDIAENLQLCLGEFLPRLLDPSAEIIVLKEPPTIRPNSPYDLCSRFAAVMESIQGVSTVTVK
Put plainly: Ubiquitin-Rhodamine 110 Assay for USP28 Activity, Example A-1(a). Particulars: biochemical IC50 range. As for the experimental part: Example A-1(a): Biochemical Assay: Ubiquitin-Rhodamine 110 Assay for USP28 Activity
The assay was performed in a final volume of 9 μL in assay buffer containing 20 mM Tris-HCl (pH 8.0, (1M Tris-HCl, pH 8.0 solution; Corning 46-031-CM)), 3 mM BME (2-Mercaptoethanol; Sigma 63689-25ML-F), 0.03% BGG (0.22 μM filtered, Sigma, G7516-25G), and 0.01% Triton X-100 (Sigma, T9284-10L). Nanoliter quantities of 10-point, 3-fold serial dilution in DMSO was pre-dispensed into 1536 assay plates (Corning, #3724BC) for a final test concentration of 25 μM to 1.3 nM, top to lowest dose, respectively. Enzyme USP28, construct His-tagged USP28-FL-mammalian, (protein expression and purification procedure described below). […] Fluorescence was read on the Envision (Excitation at 485 nm and Emission at 535 nm; Perkin Elmer) or on the PheraSTAR (Excitation at 485 nm and Emission at 535 nm; BMG Labtech). […]
For assay formats Example A-1(a), A-1(b), and A-2, data were reported as percent inhibition compared with control wells based on the following equation: % inh=1−((FLU−AveLow)/(AveHigh−AveLow)) where FLU=measured Fluorescence, AveLow=average Fluorescence of no enzyme control (n=16), and AveHighh=average Fluorescence of DMSO control (n=16). IC50 values were determined by curve fitting of the standard 4 parameter logistic fitting algorithm included in the Activity Base software package: IDBS XE Designer Model 205. […]

In turn, “3-amino-N-[(3R)-7-[(3R,4S)-3-(methoxymethyl)-4-[(^2H[…])methylamino]pyrrolidin-1-yl]-3,4-dihydro-2H-1-benzopyran-3-yl]-6-methylthieno[2,3-b]pyridine-2-carboxamide [Example 671]” displayed a 50% inhibitory concentration (IC50) of 0.001 to 0.05 µM.

In turn, “3-amino-N-[(3R)-7-[(3S,4R)-3-(methoxymethyl)-4-[(^2H[…])methylamino]pyrrolidin-1-yl]-3,4-dihydro-2H-1-benzopyran-3-yl]-6-methylthieno[2,3-b]pyridine-2-carboxamide [Example 670]” had an IC50 of 0.001 to 0.05 µM.
